Protein sequences, listed by entry. Tags and fused reporters are not part of them.
UniProt Q9Y6Q9, whole entry: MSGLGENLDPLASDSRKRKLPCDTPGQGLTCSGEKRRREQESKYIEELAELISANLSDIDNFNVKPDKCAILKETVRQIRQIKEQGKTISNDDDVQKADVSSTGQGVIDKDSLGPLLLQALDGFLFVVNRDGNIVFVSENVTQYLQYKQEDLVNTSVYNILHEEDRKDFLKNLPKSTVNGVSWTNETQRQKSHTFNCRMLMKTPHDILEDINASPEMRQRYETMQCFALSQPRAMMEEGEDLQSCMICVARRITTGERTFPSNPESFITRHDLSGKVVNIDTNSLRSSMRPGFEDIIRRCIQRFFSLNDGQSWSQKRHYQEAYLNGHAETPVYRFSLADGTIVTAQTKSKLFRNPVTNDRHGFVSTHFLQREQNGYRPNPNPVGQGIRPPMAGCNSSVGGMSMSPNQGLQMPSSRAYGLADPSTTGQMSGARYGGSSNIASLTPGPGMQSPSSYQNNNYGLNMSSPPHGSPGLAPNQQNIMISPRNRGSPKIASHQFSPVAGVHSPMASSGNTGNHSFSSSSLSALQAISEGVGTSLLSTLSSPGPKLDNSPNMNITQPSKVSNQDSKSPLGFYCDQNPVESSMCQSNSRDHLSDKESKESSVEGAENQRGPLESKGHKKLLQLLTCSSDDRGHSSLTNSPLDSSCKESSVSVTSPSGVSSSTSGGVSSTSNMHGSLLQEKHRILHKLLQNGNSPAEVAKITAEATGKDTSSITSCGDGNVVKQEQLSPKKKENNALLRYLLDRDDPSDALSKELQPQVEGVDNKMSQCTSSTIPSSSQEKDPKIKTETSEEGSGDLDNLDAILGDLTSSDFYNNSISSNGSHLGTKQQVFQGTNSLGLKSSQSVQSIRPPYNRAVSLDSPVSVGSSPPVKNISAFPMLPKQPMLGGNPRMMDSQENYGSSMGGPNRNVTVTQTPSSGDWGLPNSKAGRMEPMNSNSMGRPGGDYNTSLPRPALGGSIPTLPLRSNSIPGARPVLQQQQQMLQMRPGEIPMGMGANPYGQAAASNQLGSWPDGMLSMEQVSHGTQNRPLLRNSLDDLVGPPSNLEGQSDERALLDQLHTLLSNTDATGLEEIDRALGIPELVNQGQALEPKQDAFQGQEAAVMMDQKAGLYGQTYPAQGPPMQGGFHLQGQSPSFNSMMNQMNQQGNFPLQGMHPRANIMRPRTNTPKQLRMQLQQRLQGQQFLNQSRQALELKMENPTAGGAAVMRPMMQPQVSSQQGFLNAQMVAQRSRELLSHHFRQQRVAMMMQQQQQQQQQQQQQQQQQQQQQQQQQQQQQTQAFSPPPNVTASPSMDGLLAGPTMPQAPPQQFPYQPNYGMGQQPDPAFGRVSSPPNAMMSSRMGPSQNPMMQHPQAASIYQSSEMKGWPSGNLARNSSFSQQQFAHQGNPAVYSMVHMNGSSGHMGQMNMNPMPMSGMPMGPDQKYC

The entries are a selection whose mix differs from that of the whole data set. Active and inactive are the calls of the source.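 Rule for the calls: active = inhibition above a per-campaign cutoff, the mean of all compounds plus 3 SD (cut at about 60% in these data); inactive = the rest.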
What follows are compounds tested against Nuclear receptor coactivator 3 (Homo sapiens) (UniProt Q9Y6Q9) (assay: NCOA3 GAL4-fusion reporter inhibition – cell-based, luminescence, primary screen (AID 588352;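 note: 0% = DMSO-treated cells and 100% = gossypol-treated cells at 36 µM; higher means less SRC3-driven luciferase light from the GAL4 reporter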)). Settings: HEK293 GAL4-SRC3 luciferase reporter, at 3.6 µM, stronger effect = higher value.
COc1cc(C(=O)NCC2(N3CCOCC3)CCCCC2)cc(OC)c1C was tested, and the inhibition was inactive: 16.8%. With CCCCn1nnnc1C(c1ccccc1)N1CCC(n2c(=O)[nH]c3ccccc32)CC1 (stereo not given) the inhibition was inactive: 14.9%. With O=C(NCC1(N2CCOCC2)CCCCC1)c1cc(Br)ccc1Cl the inhibition was inactive: 21.1%. O=c1[nH]c2ccccc2n1C1CCN(C(c2cccs2)c2nnnn2C2CCCCC2)CC1 (stereo not given) was tested, and the inhibition was inactive: 1.17%. O=c1[nH]c2ccccc2n1C1CCN(C(c2ccnc3ccccc23)c2nnnn2C2CCCC2)CC1 (stereo not given) was tested, and the inhibition was inactive: -2.07%. In the case of COc1ccc(C(=O)NCC2(N3CCOCC3)CCCCC2)cc1OC, the inhibition is reported as inactive: -22.7%. In the case of COc1cccc(C(c2nnnn2C(C)(C)C)N2CCC(n3c(=O)[nH]c4ccccc43)CC2)c1OC (stereo not given), the inhibition is reported as inactive: 4.58%. In the case of CCOC(=O)N1CCC(Nc2ccc(C)cc2)CC1, the inhibition is reported as inactive: -6.12%. For N/C(=N\O)c1c(N)no[n+]1[O-], the inhibition was inactive: 13.3%. In the case of O=c1[nH]c2ccccc2n1C1CCN(C(c2cccs2)c2nnnn2C2CCCC2)CC1 (stereo not given), the inhibition is reported as inactive: 7.83%. For O=C(OC1CN2CCC1CC2)C1c2ccccc2C=Cc2ccccc21 (stereo not given), the inhibition was inactive: 13.9%. For CCCCn1nnnc1C(c1cccc(OC)c1OC)N1CCC(n2c(=O)[nH]c3ccccc32)CC1 (stereo not given), the inhibition was inactive: 3.32%. With N#Cc1ccc(C(=O)NCC2(N3CCCCC3)CCCCC2)cc1 the inhibition was inactive: 2.93%. For CC(C)(C)OC(=O)N1CCC(N(C(=O)c2ccccc2)c2ccc(Cl)cc2)CC1, the inhibition was inactive: -4.21%. CN(C)C1(CNC(=O)c2cccc(C#N)c2)CCCCC1 was tested, and the inhibition was inactive: 4.47%. In the case of CCCN1CCC(Nc2cc(OC)cc(OC)c2)CC1, the inhibition is reported as inactive: -22.7%. With O=c1[nH]c2ccccc2n1C1CCN(C(c2ccccc2)c2nnnn2C2CCCC2)CC1 (stereo not given) the inhibition was inactive: -25.4%. Cc1cc(N(CCCl)CCCl)ccc1C=O was tested, and the inhibition was inactive: 0.64%. For c1ccc(CN2CCC(Nc3ccccc3)CC2)cc1, the inhibition was inactive: -14.6%. With CC(C)(C)n1nnnc1C(c1cccc2ccccc12)N1CCC(n2c(=O)[nH]c3ccccc32)CC1 (stereo not given) the inhibition was inactive: -2.54%.

Reference: PubChem BioAssay AID588352 (The Scripps Research Institute Molecular Screening Center, 2011)
